According to ChEMBL document CHEMBL4610126:

Assays:
KARPAS-422 = assay: cells; details: Homo sapiens, KARPAS-422, 168 h
Pfeiffer = assay: Growth inhibition of human Pfeiffer cells incubated for 7 days by WST8 assay; format: functional, cell-based; details: 168 h

Row | Structure (SMILES) | IC50 (KARPAS-422) [nM] | IC50 (Pfeiffer) [nM]
1 | c1ccc(-c2cnc(NCc3ccco3)n3cncc23)cc1 | 2600 | –
2 | Cc1ccc(-c2cnc(NCc3c(F)ccc4c3CCO4)n3cnc(S(C)(=O)=O)c23)c(C)n1 | 2.8 | 0.07
3 | CCOC(=O)c1ncn2c(NCc3c(F)ccc4c3CCO4)ncc(-c3ccccc3)c12 | 12 | –
4 | CCOC(=O)c1ncn2c(NCc3ccccc3OC)ncc(-c3ccccc3)c12 | 1900 | –
